Assay outcomes from PubChem BioAssay.
Nrf2 ARE act = activates Nrf2 signaling; AREc32 ARE-luciferase reporter (MCF7-derived line), luminescence, 24 h; Potency, µM (series often up to 46.1 µM), for the others: top-dose activation, actives largely listed as activators; 410,000 compounds, 0.31% hits; AID 624171; also: potency is read from the fitted curve at half-maximal effect; % of control where 0% means no effect; nearly all actives have a fitted effect of over 65% in size
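ARE-driven firefly luciferase activity in AREc32 cells measured after a 24 hr compound exposure at 37 deg C, using Steady-Glo reagent and a 30 min room-temperature hold.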
ClpP mod = qHTS Assay for Activators of ClpP; purified B. subtilis ClpP, FRET peptide cleavage, 20 min; ATP-dependent Clp protease proteolytic subunit (Bacillus subtilis (strain 168)), P80244; 340,000 compounds, 1.9% hits; Potency, µM (titrated, usually from 57.5 µM), for the others: at the top dose activity change, negative = active; active = well fitted falling curve with a large enough effect; inconclusive = small, poorly fitted or top-dose-only effect; inactive = no such curve, though single readings can be large or run the other way; also: potency is read from the fitted curve at half-maximal effect; the source files actives as falling curves though it sought activators and does not explain the sign; nearly all actives have a fitted effect of over 65% in size
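ClpP 10 microg/mL final, pH 8 Tris/KCl buffer with BSA, glycerol, Tween-20; compound pinned in; FRET-FV substrate; RT 20 min; Ex320/Em430; ΔFRET vs ADEP 5.8 microM, DMSO, no enzyme.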
miR-21 reporter = miR-21 reporter, rising signal | HeLa miR-21 FLuc reporter, luciferase, 48 h | Potency, µM (doses to about 38.3 µM), inactives show at the top dose reporter change, positive = more light | 340,000 tested, under 10 active | AID 2288; active = well fitted rising curve with a large enough effect; inconclusive = small, poorly fitted or top-dose-only effect; inactive = no such curve, though single readings can be large or run the other way;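 note: % of control where 0% means no effect; miR-21 action dims this reporter so a rising signal means less miR-21 action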
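Luminescence from a firefly luciferase reporter carrying a miR-21 binding site downstream, stably expressed under a CMV promoter in HeLa cells that make miR-21 endogenously, reports miRNA modulation after 48 h compound exposure up to approximately 40uM final.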
IL2 activator = IL-2 activation. IL-2 activation reporter assay, cell-based qHTS; stimulated with anti-CD3/CD4/CD28 beads; in transgenic mouse T cells. activation, % (series mostly up to about 46 µM). 360,000 compounds, 0.065% hits. AID 652025; in the data active = activation above about 50%; inconclusive = mostly about 30% to 49%; also: 0% is about no effect
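Readout: EGFP and DsRed signals by fluorescent plate cytometry. Unstimulated transgenic mouse T cells received compound 60 min before antibody-bead stimulation, then incubated 18 h at 37 degrees C.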
A549 viability = A549 cytotoxicity, counter-screen for Nrf2 inhibitors | Potency, µM (titrated, usually from 46 µM), without a hit: at the top dose activity change, negative = cytotoxicity, usual class: inhibitors | A549 ARE-Fluc cells, CellTiter-Fluor viability, 18-24 h | 390,000 compounds, 0.16% hits | AID 504648; also: potency is read from the fitted curve at half-maximal effect; % is scaled to controls: 0 for no effect and ±100 for the full control effect
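A549 ARE-Fluc cells in 5% FBS OPTI-MEM, 5000 cells/well, rested 2 h then exposed to compounds in concentration-response for 18-24 h at 37 °C. Viability by CellTiter-Fluor fluorescence (Ex 405/Em 525) after 30 min; luciferase luminescence (BugLite, 15 min, RT) read afterwards.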
Nrf2 block = Nrf2 pathway inhibition | 360,000 compounds, 2.1% hits | Potency, µM (titrated, usually from 46 µM), for the others: at the top dose activity change, negative = inhibition, hits mostly inhibitors | AID 504444 | A549 ARE-Fluc reporter, luciferase luminescence, 18-24 h; also: potency is read from the fitted curve at half-maximal effect; % is scaled to controls: 0 for no effect and ±100 for the full control effect; nearly all actives have a fitted effect of over 60% in size
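A549 ARE_Fluc cells (5000/well, 5% FBS OPTI-MEM) pre-incubated 2 h, then treated with compounds 18-24 h at 37C/5% CO2 in concentration-response. CellTiter-Fluor viability read first; BugLite luciferase luminescence after 15 min at room temperature gives Nrf2 activity.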
* = called active by the depositor; ? = inconclusive; nt = no result. Hits are enriched below; roughly 3.7% of the tested compounds scored in any of these assays. Unless noted, calls follow the shape of the dose curve; as a rule, active = well fitted curve in the direction sought with a large enough effect; inconclusive = small, poorly fitted or top-dose-only effect, or another doubt; inactive = no such curve, though single readings can be large; an effect the other way counts as inactive or inconclusive.

SMILES | Nrf2 ARE act | ClpP mod | miR-21 reporter | IL2 activator | A549 viability | Nrf2 block
Cc1cccc(NC(=O)N2CCCC2C(=O)NCc2cccs2)c1 (stereo not drawn) | -0.8% | 17.8µM* | -2.0% | 0.6 | -10.0% | -9.9%
COc1ccccc1-n1c(=O)[nH]c2c(C(N)=O)nc(CC(C)C)nc21 | 3.1% | 5.4% | -19.0% | -0.7 | -4.5% | 1.6%
Cc1ccc(-n2c(=O)[nH]c3c(C(N)=O)nc(CC(C)C)nc32)cc1 | -0.3% | 28.2µM* | -16.3% | -0.6 | -12.6% | -20.4%
Cc1ccc(CNc2ncnc3ccc(-c4ccc5c(c4)OCO5)cc23)s1 | nt | nt | nt | nt | 6.2% | 2.7%
C[n+]1cc(C(O)(c2ccccc2)c2ccccc2)n2ccccc21 | nt | nt | nt | nt | 2.2% | ?
CC(C)(C)c1nn2cnnc2n(/N=C/c2ccccc2)c1=O | -0.2% | -1.4% | -7.7% | 0.0 | 4.3% | 4.8%
CC(C)(C)c1nn2cnnc2n(/N=C/c2ccc(O)cc2)c1=O | -0.8% | 7.08µM* | -1.7% | 0.6 | 3.0% | 1.9%
CC(C(=O)Nc1ccccc1)n1nnc2sc3c(c2c1=O)CCCC3 (stereo not drawn) | 3.3% | -1.5% | 12.4% | nt | -3.3% | ?
CCCCCCCCCCCCCCCC(C)C1=NCCN1 (stereo not drawn) | nt | -6.9% | nt | nt | nt | nt
COc1cccc(CN(C(=O)Cc2c[nH]c3ccccc23)C(C(=O)NC2CCCCC2)c2ccc(C)o2)c1 (stereo not drawn) | 5.4% | -1.8% | ? | -4.0 | ? | 20.6µM*
COc1ccc(CN(C(=O)Cc2c[nH]c3ccccc23)C(C(=O)NC2CCCCC2)c2ccc(C)o2)cc1 (stereo not drawn) | 0.3% | -1.9% | 27.5% | -2.3 | ? | 11.6µM*
Cc1ccc(C(C(=O)NC2CCCCC2)N(Cc2ccccc2)C(=O)Cc2c[nH]c3ccccc23)o1 (stereo not drawn) | -0.4% | -1.3% | 27.7% | -0.9 | ? | ?
Cc1c(C#N)c2ccccc2n1CCOc1ccccc1F | 3.9% | 0.3% | -5.3% | -1.7 | -2.1% | 23.1µM*
N#Cc1cn(CCOc2ccccc2F)c2ccccc12 | 3.7% | -1.6% | -22.7% | -2.0 | 9.2% | 7.5%
CCOCCc1nn2c(=O)cc(COC(=O)c3ccccc3NC(=O)c3ccccc3F)nc2s1 | 0.4% | -1.8% | -4.0% | nt | 2.9% | nt
CC(N)c1csc(Nc2ccc(C(=O)NCCCO)cn2)n1 (stereo not drawn) | 0.4% | -14.2% | nt | 0.3 | nt | nt
COc1ccc(C(N)c2csc(Nc3ccc(C(=O)NCCCO)cn3)n2)cc1 (stereo not drawn) | 3.5% | 28.2µM* | nt | -0.2 | nt | nt
Cn1c2cc(S(C)=O)sc2c2cnn(Cc3cccc(O)c3)c(=O)c21 (stereo not drawn) | nt | nt | nt | nt | 19.4% | 0.0%
Cc1c(C(=O)NCc2ccccc2)sc2nc3n(c(=O)c12)CCC3 | 2.3% | -17.8% | 25.2% | nt | 4.7% | 2.3%
FC(F)(F)c1cc(-c2cccs2)nc(-n2cc(Cl)cn2)n1 | ? | 31.6µM* | -1.5% | -1.3 | -0.2% | -23.2%
Cc1ccc(/C=N/Nc2ncc(Cl)cc2Cl)s1 | 3.3% | -4.1% | -65.0% | 1.5 | 5.8µM* | ?
COc1ccc(Nc2nc(-c3ccccc3O)nc3ccccc23)cc1 | 4.1% | -10.1% | 11.5% | -5.0 | -28.4% | -97.7%
COc1cccc(Nc2nc(-c3ccccc3O)nc3ccccc23)c1 | 12.2% | -3.6% | -6.1% | 64.1* | 5.7% | -19.2%
Cc1ccc(NC(=O)CC(C)S(=O)(=O)c2ccc3c(c2)NC(=O)CO3)cc1Cl (stereo not drawn) | 0.2% | 1.2% | 10.8% | nt | -12.1% | -4.5%
CC(=O)Nc1ccc(-c2csc(Nc3ccc(Cl)cn3)n2)cc1 | 9.4% | nt | 0.9% | -2.2 | -18.0% | 14.6µM*
CC(=O)Nc1ccc(-c2ccc(NC(C)=O)cc2)cc1 | 0.3% | nt | -15.9% | 0.0 | -0.1% | ?
CC(=O)Nc1ccc(-c2csc(NNC(=O)c3ccccc3)n2)cc1 | 19.4% | -2.5% | -7.3% | -2.4 | ? | 13µM*
CC(=O)Nc1ccc(-c2cc(-c3ccccc3)nc(-c3ccccc3)n2)cc1 | -0.4% | 28.2µM* | -5.0% | -0.2 | -12.6% | ?
CC(=O)Nc1ccc(-c2cc(-c3ccc(NC(C)=O)cc3)nc(-c3ccc(NC(C)=O)cc3)n2)cc1 | 2.1% | 5.62µM* | 0.3% | -2.8 | 10.1% | 0.4%
CC(=O)Nc1cccc(-c2csc(Nc3ccc(Cl)cn3)n2)c1 | 2.7% | -9.7% | -1.3% | -1.1 | -11.3% | -11.3%

Profiles from above. Order of values: Nrf2 ARE act | ClpP mod | miR-21 reporter | IL2 activator | A549 viability | Nrf2 block
`CC(=O)Nc1cccc(-c2csc(Nc3ccc(Cl)cn3)n2)c1` as listed: 2.7% | -9.7% | -1.3% | -1.1 | -11.3% | -11.3%
`FC(F)(F)c1cc(-c2cccs2)nc(-n2cc(Cl)cn2)n1` as listed: ? | 31.6µM* | -1.5% | -1.3 | -0.2% | -23.2%
`CC(C)(C)c1nn2cnnc2n(/N=C/c2ccccc2)c1=O` as listed: -0.2% | -1.4% | -7.7% | 0.0 | 4.3% | 4.8%
`CC(=O)Nc1ccc(-c2cc(-c3ccc(NC(C)=O)cc3)nc(-c3ccc(NC(C)=O)cc3)n2)cc1` as listed: 2.1% | 5.62µM* | 0.3% | -2.8 | 10.1% | 0.4%

Continued.
SMILES | Nrf2 ARE act | ClpP mod | miR-21 reporter | IL2 activator | A549 viability | Nrf2 block
CCC(=O)Nc1ccc(-c2cc(-c3ccccc3)nc(-c3ccc(NC(=O)CC)cc3)n2)cc1 | 0.5% | ? | -4.9% | -4.8 | -10.5% | -26.5%
C=CCn1c(NS(=O)(=O)c2ccccc2)c(S(=O)(=O)c2ccc(C)cc2)c2nc3ccccc3nc21 | 0.0% | -1.4% | ? | -1.2 | -12.9% | ?
Nc1c(S(=O)(=O)c2cc(Cl)ccc2Cl)c2nc3ccccc3nc2n1CCN1CCOCC1 | 2.8% | ? | 13.5% | -2.7 | ? | nt
CC(=O)Nc1c(S(=O)(=O)c2ccccc2)c2nc3ccccc3nc2n1Cc1ccccc1 | 3.1% | 15.8µM* | 7.0% | 0.0 | -9.4% | -26.1%
CC(=O)Nc1ccc(S(=O)(=O)c2c(N)n(CCN3CCOCC3)c3nc4ccccc4nc23)cc1 | 0.0% | 31.6µM* | 0.4% | 0.3 | 10.5% | nt
CC(C)Oc1cccc(NC(=O)C2CCN(S(=O)(=O)Cc3ccccc3)CC2)c1 | -0.2% | -0.8% | -0.6% | nt | 14.7% | -11.3%
O=S(=O)(c1ccc(Oc2ncnc3scc(-c4ccccc4)c23)cc1)N1CCOCC1 | 4.1% | 3.4% | 9.9% | -3.1 | -4.7% | 16.4µM*
CC(C)N1C(=O)S/C(=C/c2ccc(Sc3nc4ccccc4[nH]3)o2)C1=O | 9.4% | -3.0% | -6.9% | -3.5 | ? | 14.6µM*
COc1ccc(C(c2nnnn2C(C)(C)C)N2CCN(c3nc4ccccc4s3)CC2)cc1 (stereo not drawn) | -0.1% | 25.1µM* | 8.3% | 0.7 | 6.0% | nt
COc1ccc(N2CCN(C(c3ccccc3)c3nnnn3C(C)(C)C)CC2)cc1 (stereo not drawn) | 0.3% | -6.7% | nt | -0.2 | nt | nt
Cn1c(=O)c2c(nc(Oc3ccccc3Cl)n2Cc2ccc(C#N)cc2)n(C)c1=O | -0.5% | -2.9% | -1.5% | nt | 12.0% | 0.9%
O=C(C[n+]1cccc(CNC(=O)c2ccc(OC(F)F)cc2)c1)c1ccccc1 | -0.4% | nt | -1.3% | 0.3 | 5.8% | ?
